Reference: PubChem BioAssay AID680 (PCMD, 2007)
This is a selection; strong and weak results do not stand in their true shares. Calls of active or inactive are those of the source. No stated cut-off is given here; in the data, active means inhibition above about 20% (passing the limit was not always enough); inactive means the rest.

Chains of the proteins cited; added tags and fusions are not shown. Residues count along the entry.
UniProt P03951, 19-387 limits assumed: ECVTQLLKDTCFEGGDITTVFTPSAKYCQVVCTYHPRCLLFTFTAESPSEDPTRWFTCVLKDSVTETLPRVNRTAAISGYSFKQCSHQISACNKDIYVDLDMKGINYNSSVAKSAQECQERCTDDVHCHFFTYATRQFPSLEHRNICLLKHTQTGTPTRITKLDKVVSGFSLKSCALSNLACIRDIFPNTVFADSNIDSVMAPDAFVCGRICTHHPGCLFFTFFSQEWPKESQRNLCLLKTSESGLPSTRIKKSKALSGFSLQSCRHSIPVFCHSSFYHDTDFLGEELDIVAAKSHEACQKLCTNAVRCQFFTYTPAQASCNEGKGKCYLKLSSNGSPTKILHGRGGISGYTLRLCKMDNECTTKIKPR
UniProt P03951, 388-625 limits assumed: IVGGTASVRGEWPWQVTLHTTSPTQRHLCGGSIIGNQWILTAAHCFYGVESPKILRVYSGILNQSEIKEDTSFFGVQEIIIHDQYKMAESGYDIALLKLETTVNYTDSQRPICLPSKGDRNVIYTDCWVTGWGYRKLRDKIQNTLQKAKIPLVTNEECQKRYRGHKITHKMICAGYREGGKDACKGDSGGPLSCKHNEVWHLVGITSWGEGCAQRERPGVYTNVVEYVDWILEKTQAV

Molecular target: Coagulation factor XI (Homo sapiens) (UniProt P03951)
Experiment: FXIa protease inhibitors in compound pools, primary screen, biochemical, 10-compound mixtures (AID 680);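 further: each value is inhibition by a whole ten-compound pool holding the compound; 0% = enzyme with no mixture and 100% = wells lacking enzyme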
Conditions: purified FXIa, fluorogenic substrate, pooled mixtures; at 5 µM; hits give high values

| Compound | inhibition |
| --- | --- |
| N#CC1(Nc2ccccc2)CCN(CCc2ccccc2)CC1 | inactive: 8.17% |
| O=C(OC1CN2CCC1CC2)C1c2ccccc2Oc2ccccc21 (stereo unspecified) | inactive: 5.59% |
| CCOc1ncccc1C(=O)NCC1(N2CCOCC2)CCCCC1 | inactive: 2.43% |
| CCC(CO)(C(=O)OC1CN2CCC1CC2)c1ccccc1 (stereo unspecified) | inactive: 3.62% |
| Fc1ccccc1NC1CCN(Cc2ccccc2)CC1 | inactive: 7.22% |
| N/C(=N\O)c1c(N)no[n+]1[O-] | inactive: 3.27% |
